US20050208528A1, “Enhancement of the stability of oligonucleotides comprising phosphorothioate linkages by addition of water-soluble antioxidants” (ISIS Pharmaceuticals, Inc., priority 2001, published 2005)

Legend:
Assay type in all cases: physicochemical
ISIS 2302 [1] = test: Desulfurization in bi-phasic cream formulation with oil-soluble antioxidants, 40° C. for 2 days; conditions: 40° C. 2 days; for Full PS content (%): 0.03% ISIS 2302, 0 mg gives 83.9
Procedure: A cream formulation was prepared containing 5.0 g BRIJ 58 (polyoxyethylene[20]cetyl ether), 0.03% ISIS 2302 and different concentrations of phenolic antioxidants.

ISIS 2302 [2] = test: Desulfurization in bi-phasic cream formulation with water-soluble and oil-soluble antioxidants, 40° C. for 6 days; conditions: additive 4.7 mg, 0.03% ISIS 2302, 40° C. 6 days, no additive 84.7
Procedure: The cream was heated at 40° C. for 6 days and the oligonucleotide was isolated by ethanol precipitation and analyzed for full PS content by SAX chromatography.

[3] = system: phosphorothioate oligonucleotide (ISIS-2302); test: Desulfurization of phosphorothioate oligonucleotide in mono-phasic system with oil-soluble antioxidants (SAX chromatography); conditions: 5 mg additive; 0.5 g PEG-40-monostearate, 1.5 ml phosphate buffer pH 7.0, 1.5 mg ISIS-2302; 65° C. 20 hours; no antioxidants 51.0
Procedure: Polyethyleneglycol-40-monostearate (0.5 g), a water-soluble excipient which forms peroxides in the absence of antioxidants, was heated at 65° C. for 20 hours with 1.5 ml phosphate buffer, pH 7.0 and 1.5 mg phosphorothioate oligonucleotide (ISIS-2302) in the absence or presence of various oil-soluble antioxidants. Oligonucleotides were isolated by ethanol precipitation and phosphorothioate content was determined by strong anion exchange (SAX) chromatography.

Substance: 2 + 3 t-butyl-4-methoxyphenol [BHA]
- Full PS content (%) (ISIS 2302 [1]; 5 mg antioxidant in 100 g cream): 80.7%
- Full PS content (%) (ISIS 2302 [1]; 10 mg antioxidant in 100 g cream): 86.9%
- Full PS content (%) (ISIS 2302 [1]; 25 mg antioxidant in 100 g cream): 81.1%
- Full PS content (%) (ISIS 2302 [1]; 50 mg antioxidant in 100 g cream): 77.7%
- Full PS content (%) (ISIS 2302 [1]; 75 mg antioxidant in 100 g cream): 77.7%
- Full PS content (%) (ISIS 2302 [1]; 100 mg antioxidant in 100 g cream): 74.6%
- Protection of phosphorothioate oligonucleotides against desulfurization (in words) (ISIS 2302 [1]; biphasic cream): do not provide protection
- Full PS content (%) (ISIS 2302 [2]): 80.9%
- Full PS content (area-% SAX) [3]: 71.5 area-% SAX
